{"source": "paper PMC12105006", "about": "“AI-Driven De Novo Design and Development of Nontoxic DYRK1A Inhibitors” (Journal of Medicinal Chemistry, 2025)", "experiment": "Oxygen radical absorbance capacity (ORAC) antioxidant assay", "protocol": "The antioxidant activity of the newly synthesized compounds was assessed using the oxygen radical absorbance capacity (ORAC) in vitro assay. The FLUOstar Optima plate reader (BMG Labtech GmbH, Offenburg, Germany) was employed, with excitation at 485 nm and emission at 520 nm. 2,2′-Azobis(amidinopropane) dihydrochloride (AAPH), (±)-6-hydroxy-2,5,7,8-tetramethylchromane-2-carboxylic acid (trolox), and fluorescein (FL) were procured from Sigma-Aldrich. The assay was conducted in 75 mM phosphate buffer (pH = 7.4) with a final reaction volume of 200 μL. Each well of black 96-well plates contained 25 μL of the antioxidant sample and 150 μL of fluorescein (10 nM). After preincubation at 37 °C for 30 min, 25 μL of a 240 mM AAPH solution was rapidly added using a multichannel pipet. Fluorescence measurements were taken every 90 s for 90 min, with the plate agitated before each reading. The compounds were tested at four concentrations (10–1 μM). A blank containing FL and AAPH in phosphate buffer, as well as four concentrations of trolox (10–1 μM) served as controls. All reactions were performed in duplicate, with at least three independent tests per compound. Data were exported for analysis, plotting absorbance versus time. The area under the fluorescence decay curve (AUC) was calculated for each sample. ORAC values were derived from the AUC values and expressed as Trolox equivalents.", "note": "Where two headings read alike, the source gives them in different places."}
{"smiles": "CN1CCC(n2cc(-c3cnc4[nH]cc(-c5cc(Cl)cc(Cl)c5)c4c3)cn2)CC1", "note": "[Compound 6, 3-(3,5-Dichlorophenyl)-5-(1-(1-methylpiperidin-4-yl)-1H-pyrazol-4-yl)-1H-py-rrolo[2,3-b]pyridine]", "values": [{"measurement": "ORAC", "value": "0.44 ± 0.06"}, {"measurement": "ORAC", "setting": "phosphate buffer pH 7.4, fluorescein/AAPH", "value": "0.44 ± 0.06 μmol of trolox equivalents/μmol of tested compound"}]}
